Results: patent US7745390B2, “Antimicrobial peptides” (priority 2005, dated 2010)
pIC50: −log10 of the molar value. In brackets after ≈: the same amount, converted by molar mass.

Assays:
[1] = system: U937 cells; experiment: Lysis of tumor cells: apoptosis of U937 by 3H-thymidine; settings: U937, 50 μM peptide, 4-6 hours
[2] = system: S. typhimurium; settings: Wang et al.; cited from earlier work
[3] = system: Salmonella; assay type: cell-based, S. typhimurium; settings: pH 7.2
Protocol: (§1) The experiments described above characterizing the activity of granulysin peptides G1-G18 relied on counting bacterial colonies on plates. This assay is quite labor intensive and would not allow evaluation of many different compounds on a number of different microbes. Therefore, we optimized an assay in which the entire procedure could be completed in a single microtiter well. Briefly, peptides are diluted in 10 mM phosphate buffer, pH 7.2 supplemented with 0.03% LB (J. Sambrook, D. W. Russell, Molecular Cloning: A Laboratory Manual (Cold Spring Harbor Laboratory Press, New York, ed. 3, 2001) pg. A2.2, Retrieved from http://openwetware.org/wiki/LB) and 25 μl is added to microtiter wells. Bacteria (25 μl) are added (˜5×10^6 colony forming units/ml) in the same buffer. After a 3-hour incubation at 37° C., 150 μl of LB is added and the plates are incubated overnight. The OD at 600 nm is read on an ELISA plate reader. The minimum inhibitory concentration (MIC) is the lowest concentration allowing no bacterial growth. The IC50 is the concentration of peptide that results in 50% growth compared to the medium.
(§2) We now describe additional peptides and their activity. The peptides have been designed, synthesized, and have been tested for lysis of E. coli and S. typhimurium (gram negative bacteria), B. cereus (gram positive bacterium). Results are shown in Table 2 along with the amino acid sequence of the peptide. Changes from the naturally occurring sequence are underlined. In general, the desired result is lysis of bacteria at low concentration (<1 μM).
(§3) In Table 2, Columns 2-7 are the MIC and IC50 (concentration required for 50% inhibition of growth) for each organism (E. coli, Salmonella, and B. cereus). The MIC (minimum inhibitory concentration) was determined as described above, in a multiwell plate assay. […] L-isomer amino acids are designated by capital letters while D-isomer amino acids are designated by lower case letters.

[4] = system: B. cereus; assay type: cell-based; settings: pH 7.2
Protocol: as §1, §2, §3

[5] = system: E. coli DH5a; assay type: cell-based; settings: for E. coli DH5a MIC / pIC50: pH 7.2
Protocol: as §1, §2, §3

[6] = system: E. coli; experiment: Microtiter plate MIC assay in media with different concentrations of NaCl; assay type: cell-based; settings: NaCl increased from 10 mM to 150 mM
Protocol: as §1
The activity of many cationic antimicrobial peptides is abrogated in isotonic media, most likely because the electrostatic interaction of the positively charged peptides with the negatively charged membrane is disrupted by salt. […]

[7] = Degree of helicity by circular dichroism; assay type: physicochemical; settings: Table 4
Protocol: For designing analogues of the present sequences, as taught herein, the Table also presents data on the degree of helicity of the active peptides, as measured by circular dichroism. It should be noted that a number of the active peptides listed in the figure are not alpha helices at all. At least one peptide tested was considered to be a random coil, with no detectible secondary structure evident in the circular dichroism measurement.
The MIC values are for E. coli in 10 mM phosphate buffer. The peptides were derived by the inventors from granulysin helix 3. […] It contains an equal number of hydrophobic and positively charged amino acids, can adapt an αhelical structure, and is very amphipathic. In contrast, the remaining 3 peptides all retain activity in DMEM even in the presence of serum. These peptides contain more positive residues than hydrophobic residues. G12.21 contains 2 proline residues, G11.46 is based on a modification of the helix three sequence (RRVSRRFMRR) (SEQ ID NO: 91) with a 5 arginine extension at the NH2 terminus, and G14.15 includes loop 2/RRVSRRFMRR (SEQ ID NO: 91).

[8] = system: bacteria; experiment: Activity in DMEM and RPMI media (lysis of bacteria); assay type: cell-based
Protocol: The CFU assay is the “gold standard” for evaluating antibiotics. Briefly, bacteria are grown overnight in rich medium, such as LB, and then diluted and grown in log phase for 2-4 hours. Cultures are set up as above, with the initial culture media being 10 mM phosphate buffer/0.03% LB; DMEM or RPMI; or DMEM or RPMI plus 10% serum (fetal calf, human, or mouse). After various periods of time, but generally 3 hours or less, aliquots are removed, diluted in LB at various dilutions, and plated on LB agar plates. Plates are incubated overnight at 37° C. and counted on an automatic colony counter.
In the column “Active in DMEM”, a blank means no activity. MAP stands for multiple antigenic peptide, where a number of identical peptide chains are synthesized and joined to a common core (like a dendrimer).
The peptides listed in Table 2 were tested in DMEM and RPMI, media that approximate blood and tissue conditions in vivo and those that were active under these conditions are listed in the last column (active in DMEM). […]
The hydrophobic moment is a measure of amphipathicity and indicates how well the hydrophobic residues fall on one side of the helix while the hydrophilic residues fall on the opposite side is shown in column 7. This was determined using the Membrane Explorer Program (http://blanco.biomol.uci.edu/mpex/). […]

[9] = system: Jurkat cells; assay type: cell-based
From the text: To further investigate the contribution of secondary structure to function, additional Peptides G16-G19 (beyond peptides G1-G15, previously reported) were synthesized. Peptide G16 is identical to G13, except that a D-alanine residue was substituted for the L-alanine at position 30. […] In peptide G17, the two arginine residues in loop two are substituted with glutamine.
As shown above, substitution of the two arginine residues in Loop 2 with glutamine abrogates activity against Jurkat cells but only slightly affects lysis of S. typhimurium. Peptide G18 is identical to G14 except that a D-arginine was substituted at position 46. […] Peptide G19 incorporates both the R→Q substitutions as well as the D-arginine at position 46.

Compound	apoptosis of tumor cells [1]	bacterial lysing ability [2]	pIC50 [3]	Salmonella MIC [3]	B. cereus MIC [4]	pIC50 [4]	E. coli DH5a MIC [5]	pIC50 [5]	effect of salt concentration on activity [6]	% α-helix [7]	MIC [5]	activity in DMEM [8]	lysis of Jurkat cells [9]
CSCC[C@H](NC(=O)[C@H](Cc1ccccc1)NC(=O)[C@H](CC(N)=O)NC(=O)[C@H](CCCNC(=N)N)NC(=O)[C@@H]1CSSC[C@H](NC(=O)[C@@H](NC(=O)[C@H](CCCNC(=N)N)NC(=O)[C@@H](NC(=O)[C@H](C)NC(=O)[C@H](C)NC(=O)[C@H](CC(N)=O)NC(=O)[C@H](CO)NC(=O)[C@@H](NC(=O)[C@H](CO)NC(=O)[C@H](CCCNC(=N)N)NC(=O)[C@@H](N)CCC(N)=O)C(C)C)[C@@H](C)O)C(C)C)C(=O)N[C@@H](CCCNC(=N)N)C(=O)N[C@@H]([C@@H](C)O)C(=O)NCC(=O)N[C@@H](CCCNC(=N)N)C(=O)N[C@@H](CO)C(=O)N[C@@H](CCCNC(=N)N)C(=O)N[C@@H](Cc2c[nH]c3ccccc23)C(=O)N[C@@H](CCCNC(=N)N)C(=O)N[C@@H](CC(=O)O)C(=O)N[C@@H](C(C)C)C(=O)N1)C(=O)N[C@@H](CCCNC(=N)N)C(=O)N[C@@H](CCCNC(=N)N)C(=O)O [Peptide G8, reference compound]	cause apoptosis of tumor cells	same bacterial lysing ability as full-length granulysin	6.05	1.4 µM	1.4 µM	6.05	0.75 µM	6.26	lost minimal activity				
CSCC[C@H](NC(=O)[C@H](Cc1ccccc1)NC(=O)[C@H](CC(N)=O)NC(=O)[C@H](CCCNC(=N)N)NC(=O)[C@H](CO)NC(=O)[C@@H](NC(=O)[C@H](CC(=O)O)NC(=O)[C@H](CCCNC(=N)N)NC(=O)[C@H](Cc1c[nH]c2ccccc12)NC(=O)[C@H](CCCNC(=N)N)NC(=O)[C@H](CO)NC(=O)[C@H](CCCNC(=N)N)NC(=O)CNC(=O)[C@@H](NC(=O)[C@H](CCCNC(=N)N)NC(=O)[C@H](CO)NC(=O)[C@@H](NC(=O)[C@H](CCCNC(=N)N)NC(=O)[C@@H](NC(=O)[C@H](C)NC(=O)[C@H](C)NC(=O)[C@H](CC(N)=O)NC(=O)[C@H](CO)NC(=O)[C@@H](NC(=O)[C@H](CO)NC(=O)[C@H](CCCNC(=N)N)NC(=O)[C@@H](N)CCC(N)=O)C(C)C)[C@@H](C)O)C(C)C)[C@@H](C)O)C(C)C)C(=O)N[C@@H](CCCNC(=N)N)C(=O)N[C@@H](CCCNC(=N)N)C(=O)O [Peptide G8.1]		same bacterial lysing ability as full-length granulysin	5.76	2.8 µM	2.8 µM	5.76	0.75 µM	6.26	moderately affected by increasing concentrations of salt				
CSCC[C@@H](NC(=O)[C@@H](Cc1ccccc1)NC(=O)[C@@H](CC(N)=O)NC(=O)[C@@H](CCCNC(=N)N)NC(=O)[C@@H](CO)NC(=O)[C@H](NC(=O)[C@@H](CC(=O)O)NC(=O)[C@@H](CCCNC(=N)N)NC(=O)[C@@H](Cc1c[nH]c2ccccc12)NC(=O)[C@@H](CCCNC(=N)N)NC(=O)[C@@H](CO)NC(=O)[C@@H](CCCNC(=N)N)NC(=O)CNC(=O)[C@H](NC(=O)[C@@H](CCCNC(=N)N)NC(=O)[C@@H](CO)NC(=O)[C@H](NC(=O)[C@@H](CCCNC(=N)N)NC(=O)[C@H](NC(=O)[C@@H](C)NC(=O)[C@@H](C)NC(=O)[C@@H](CC(N)=O)NC(=O)[C@@H](CO)NC(=O)[C@H](NC(=O)[C@@H](CO)NC(=O)[C@@H](CCCNC(=N)N)NC(=O)[C@H](N)CCC(N)=O)C(C)C)[C@H](C)O)C(C)C)[C@H](C)O)C(C)C)C(=O)N[C@H](CCCNC(=N)N)C(=O)N[C@H](CCCNC(=N)N)C(=O)O [Peptide G8.17, qrsvsnaatrvsrtgrsrwrdvsrnfmrr]			6.10	1.38 µM	2.8 µM	5.76	0.7 µM	6.52		40%	0.75 µM (≈ 2.62 µg/mL)	loses all activity in DMEM	
CC(C)[C@H](NC(=O)[C@H](CO)NC(=O)[C@H](CCCNC(=N)N)NC(=O)[C@@H](N)CCC(N)=O)C(=O)N[C@@H](CO)C(=O)N[C@@H](CC(N)=O)C(=O)N[C@@H](C)C(=O)N[C@H](C)C(=O)N[C@H](C(=O)N[C@@H](CCCNC(=N)N)C(=O)N[C@H](C(=O)N[C@@H](CS)C(=O)N[C@@H](CCCNC(=N)N)C(=O)N[C@H](C(=O)NCC(=O)N[C@@H](CCCNC(=N)N)C(=O)N[C@@H](CO)C(=O)N[C@@H](CCCNC(=N)N)C(=O)N[C@@H](Cc1c[nH]c2ccccc12)C(=O)O)[C@@H](C)O)C(C)C)[C@@H](C)O [Peptide G16, QRSVSNAaTRVCRTGRSRW]													Neither peptide G16 nor G17 lysed Jurkat cells in an appreciable way
